Here are results for two substances from US5763219.

The target in the test is histone H1.

“cycEΔ9/cdk2 complex (from UniProt P24941) (enzyme)” registered a phosphorylation of histone H1 of 2 fold.

The substance “cycEΔ148/cdk2 complex (from UniProt P24941) (enzyme)” showed a phosphorylation of histone H1 of 2 fold.
